Here are results for two molecules from PMC11348464.

Protein sequences, listed by entry. Tags and fused reporters are not part of them. Lines headed by an entry give the natural chain unless they say otherwise; changes in a name come on top. Residues count along the entry.
UniProt Q09472, 2-2414 limits assumed: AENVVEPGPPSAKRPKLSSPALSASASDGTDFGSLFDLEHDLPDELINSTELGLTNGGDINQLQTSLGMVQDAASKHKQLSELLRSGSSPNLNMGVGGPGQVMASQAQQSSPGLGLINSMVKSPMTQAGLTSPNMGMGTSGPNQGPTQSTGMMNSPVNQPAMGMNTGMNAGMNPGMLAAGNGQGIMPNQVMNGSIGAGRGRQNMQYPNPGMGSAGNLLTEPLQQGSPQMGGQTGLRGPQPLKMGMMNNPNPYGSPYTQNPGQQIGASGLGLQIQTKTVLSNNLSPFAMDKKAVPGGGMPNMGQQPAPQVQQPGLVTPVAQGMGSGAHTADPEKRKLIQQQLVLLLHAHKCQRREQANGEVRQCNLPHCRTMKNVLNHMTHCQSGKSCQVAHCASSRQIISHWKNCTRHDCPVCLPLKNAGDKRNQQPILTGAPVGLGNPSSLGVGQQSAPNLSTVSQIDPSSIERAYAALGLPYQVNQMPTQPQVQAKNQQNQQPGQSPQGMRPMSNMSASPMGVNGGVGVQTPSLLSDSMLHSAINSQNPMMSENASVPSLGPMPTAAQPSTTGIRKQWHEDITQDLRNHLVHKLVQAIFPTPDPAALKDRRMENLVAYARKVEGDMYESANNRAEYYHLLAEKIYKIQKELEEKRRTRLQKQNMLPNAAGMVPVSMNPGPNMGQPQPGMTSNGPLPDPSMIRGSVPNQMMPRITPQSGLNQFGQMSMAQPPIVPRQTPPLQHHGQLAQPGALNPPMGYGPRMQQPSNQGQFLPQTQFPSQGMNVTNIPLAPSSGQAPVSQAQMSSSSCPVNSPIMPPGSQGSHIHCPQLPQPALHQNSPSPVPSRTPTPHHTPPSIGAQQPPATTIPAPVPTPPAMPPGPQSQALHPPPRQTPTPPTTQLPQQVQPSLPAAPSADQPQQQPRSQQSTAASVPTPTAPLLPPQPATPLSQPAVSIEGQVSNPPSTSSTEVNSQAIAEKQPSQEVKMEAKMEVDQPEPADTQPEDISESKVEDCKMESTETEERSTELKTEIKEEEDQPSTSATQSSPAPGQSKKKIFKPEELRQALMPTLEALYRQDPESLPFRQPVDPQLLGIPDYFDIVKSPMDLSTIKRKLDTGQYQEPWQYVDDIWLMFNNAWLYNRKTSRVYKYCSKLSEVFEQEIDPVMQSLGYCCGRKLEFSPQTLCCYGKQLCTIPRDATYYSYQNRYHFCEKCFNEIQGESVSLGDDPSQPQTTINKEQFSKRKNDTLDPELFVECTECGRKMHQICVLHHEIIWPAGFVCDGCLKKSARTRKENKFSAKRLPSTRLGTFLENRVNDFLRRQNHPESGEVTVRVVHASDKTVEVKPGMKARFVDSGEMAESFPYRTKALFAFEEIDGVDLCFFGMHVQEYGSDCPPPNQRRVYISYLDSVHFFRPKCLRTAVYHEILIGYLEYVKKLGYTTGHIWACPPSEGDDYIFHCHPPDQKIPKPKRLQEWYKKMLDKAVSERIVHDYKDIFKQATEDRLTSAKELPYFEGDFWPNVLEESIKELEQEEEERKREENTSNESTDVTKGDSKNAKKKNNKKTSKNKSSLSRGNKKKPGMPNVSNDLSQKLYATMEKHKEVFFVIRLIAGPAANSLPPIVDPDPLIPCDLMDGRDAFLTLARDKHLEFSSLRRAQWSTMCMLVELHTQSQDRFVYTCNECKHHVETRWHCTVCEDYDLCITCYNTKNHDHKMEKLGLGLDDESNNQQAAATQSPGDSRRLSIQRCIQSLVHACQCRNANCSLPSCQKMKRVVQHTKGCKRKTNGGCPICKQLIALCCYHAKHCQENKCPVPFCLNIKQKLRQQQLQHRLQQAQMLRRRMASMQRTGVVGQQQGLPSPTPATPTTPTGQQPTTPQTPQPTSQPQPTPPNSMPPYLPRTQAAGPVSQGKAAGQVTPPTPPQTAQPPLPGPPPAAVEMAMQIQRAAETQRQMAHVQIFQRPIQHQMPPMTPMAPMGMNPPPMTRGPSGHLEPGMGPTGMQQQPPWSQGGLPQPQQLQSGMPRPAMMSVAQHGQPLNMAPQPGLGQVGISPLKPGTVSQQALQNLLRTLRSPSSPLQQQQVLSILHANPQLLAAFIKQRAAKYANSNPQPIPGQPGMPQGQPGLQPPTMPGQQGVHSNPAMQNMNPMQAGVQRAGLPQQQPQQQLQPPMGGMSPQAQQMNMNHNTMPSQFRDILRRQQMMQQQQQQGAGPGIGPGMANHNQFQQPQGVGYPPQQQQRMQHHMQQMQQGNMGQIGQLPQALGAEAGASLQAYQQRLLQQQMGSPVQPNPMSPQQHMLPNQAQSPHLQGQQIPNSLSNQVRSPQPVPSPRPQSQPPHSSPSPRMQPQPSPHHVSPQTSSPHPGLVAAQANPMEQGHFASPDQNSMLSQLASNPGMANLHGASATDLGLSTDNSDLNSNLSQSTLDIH

This experiment concerns the target EP300 (E1A binding protein p300) (Homo sapiens, UniProt Q09472). The experiment is described as follows: TR-FRET assay kit with tetra-acetylated biotinylated H4 peptide and EP300, dose-response.

`O=C1NC(=O)C(=Cc2ccccc2OCc2cccc(F)c2)N1` gave an IC50 of 5.89 µM.
In turn, `CCOC(=O)c1c(C)[nH]c(C(=O)CSc2cc(C)c3ccc(OC)cc3n2)c1C` displayed an IC50 of 53.6 µM.
